Experimental data from article PMC9295563, “A Reduced F420-Dependent Nitrite Reductase in an Anaerobic Methanotrophic Archaeon” (Journal of Bacteriology, 2022).

Test system: NO
Experiment: purified protein
Conditions: 40 μM F420H2, 2-500 μM hydroxylamine, 0.5 mM DTT, pH 7 phosphate, anaerobic, kcat in electrons transferred per subunit

ANME2c-FsrII-6D (uncultured archaeon)
Km: 11 ± 1 µM
kcat: 2.17 s⁻¹
kcat/Km: 12 ± 2 (NH2OH)
